# Reference: PubChem BioAssay AID652105 (National Center for Advancing Translational Sciences (NCATS), 2013)
# The chains behind the UniProt entries cited, without tags or fusion partners. Where a name states a change or a piece, a line headed by the entry shows the natural chain unless it says otherwise.
# UniProt P48426: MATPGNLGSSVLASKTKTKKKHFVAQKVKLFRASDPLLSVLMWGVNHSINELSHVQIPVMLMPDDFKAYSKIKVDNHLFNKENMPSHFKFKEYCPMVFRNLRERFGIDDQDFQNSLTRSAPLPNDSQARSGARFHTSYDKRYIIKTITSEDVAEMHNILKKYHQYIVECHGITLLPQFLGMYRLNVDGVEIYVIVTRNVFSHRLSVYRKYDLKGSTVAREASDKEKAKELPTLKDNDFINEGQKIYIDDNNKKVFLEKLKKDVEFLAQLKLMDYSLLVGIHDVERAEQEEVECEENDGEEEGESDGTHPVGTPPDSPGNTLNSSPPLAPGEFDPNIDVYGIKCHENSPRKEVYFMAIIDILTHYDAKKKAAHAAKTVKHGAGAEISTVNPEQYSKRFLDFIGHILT
# Only a part is listed here, and it is no random draw. Activity calls are given as the source filed them. The calls were made as follows: active = max response of -50% or lower; inconclusive = between -30% and -50%; inactive = -30% or higher.
# Biological target: Phosphatidylinositol 5-phosphate 4-kinase type-2 alpha (Homo sapiens) (UniProt P48426)
# Assay: qHTS for Inhibitors of phosphatidylinositol 5-phosphate 4-kinase (PI5P4K); also: value at the top dose of about 77 µM
# Conditions: PI5P4Kalpha enzyme, ADP-Glo luminescence, 60 min; active compounds read low
# Description: In addition to finding PI5P, we discovered the type II phosphatidylinositol 5-phosphate 4-kinase (PI5P4K) family (alpha, beta, gamma isoforms) that catalyze the conversion of PI5P to PI(4,5)P2. Alternatively, PI(4,5)P2 can also be synthesized through phosphatidylinositol-4-phosphate (PI4P) by the type I phosphatidylinositol 4-phosphate 5-kinases (PI4P5K). These PI5P4K enzymes therefore represent one way by which cells can regulate endogenous PI5P levels and play important roles in insulin signaling and in stress responses.
# This proposal aims to identify and optimize specific modulators of human PI5P4K, phosphatidylinositol-5-phosphate 4-kinase (Type II PIPK), a family of kinases that regulate AKT signaling and tumor cell growth. In this project we aim to identify inhibitors of human PI5P4K using a quantitative high-throughput screening approach against the MLSMR containing ~400,000 small molecules.
# NIH Chemical Genomics Center [NCGC]
# NIH Molecular Libraries Probe Centers Network [MLPCN]
# Assay Submitter (PI): Atsuo Sasaki, Beth Israel Deaconess Medical Center
# 2 microL of PI5P4Kalpha/substrate buffer (columns 1-2, 5-48) are dispensed into Greiner white solid bottom 1536-well assay plates; column 3 receives only PI5P4Kalpha buffer as 0x substrate controls; column 4 receives only substrate buffer as 0x PI5P4Kalpha controls. Final assay buffer consists of 0.038 M HEPES pH 7.4, 0.28 mM EGTA, 0.1% CHAPS, and 5% DMSO (final concentration). Compounds are then transferred via Kalypsys pin tool equipped with 1536-pin array (10 nL slotted pins, V&P Scientific, San Diego, CA). Following addition of compound, 1 microL of ATP (5 microM final concentration, all columns) is added to initiate the reaction. ATP is diluted in an assay buffer consisting of 0.02 M HEPES pH 7.4, 60 mM MgCl2, 15 microM ATP, and 0.1% CHAPS. The plates are then incubated at room temperature for 60 minutes. ADP-Glo reagent 1 is added (2 microL) and plates incubated for 45 minutes, before ADP-Glo reagent 2 (4 microL) is added and plates incubated for 30 minutes. They are then transferred to a ViewLux high-throughput CCD imager (PerkinElmer) wherein single end-point measurements of luminescence are acquired using a clear filter.
# % is scaled to controls: 0 for no effect and ±100 for the full control effect.
row,SMILES,max response
1,O=[N+]([O-])c1cc(Oc2ccc([N+](=O)[O-])cc2C(F)(F)F)cc([N+](=O)[O-])c1,inactive: 3.82%
2,COc1ccc(N/C(=N/P(=O)(N2CCOCC2)N2CCOCC2)N2CCOCC2)cc1,inactive: -4.71%
3,O=P1(N(CCCl)CCCl)OCCCN1CCCl (stereo not given),inactive: 1.47%
4,O=P1(N(CCCl)CCCl)Nc2ccccc2N1,inactive: -0.756%
5,COc1ccc2nc(NP(=O)(c3ccccc3)c3ccccc3)sc2c1,inactive: 5.73%
6,COc1cc(I)ccc1[As](=O)(O)O,inactive: -2.93%
7,Cc1c2c(nc3ccccc13)SC(C(Cl)Cl)C2 (stereo not given),inactive: 1.45%
8,O=C(OC1CN2CCC1CC2)C12CC3CC(CC(C3)C1)C2 (stereo not given),inactive: -0.243%
9,Cc1cc(=O)[nH]c(N[N+](=O)[O-])n1,inactive: 3.83%
10,CCN(CC)C(=S)SC(NC=O)C(Cl)(Cl)Cl (stereo not given),inactive: 5.79%
11,O=C(OC1CN2CCC1CC2)c1cccc2[nH]cnc12 (stereo not given),inactive: -4.65%
12,CC(C)NC(=O)NP(=O)(Oc1ccccc1)Oc1ccccc1,inactive: 4.85%
13,ClCCSc1nnc(-c2cccnc2)o1,inactive: -1.48%
14,CC(C)c1ccc(OP(=O)(Nc2ccccn2)Oc2ccccc2F)cc1 (stereo not given),inactive: -0.433%
15,COC(=O)C1(C)COP(=O)(N2CCCCCC2)OC1 (stereo not given),inactive: -1.59%
16,Cc1ccc(OP(=O)(Nc2ccc([N+](=O)[O-])cn2)Oc2ccc(C)cc2)cc1,inactive: 1.6%
17,[N-]=[N+]=NC1CCCCC1NC(=O)c1cc([N+](=O)[O-])cc([N+](=O)[O-])c1 (stereo not given),inactive: 0.0224%
18,Cc1ccc2nc3c(c(C)c2c1)CC(C(Cl)Cl)S3 (stereo not given),inactive: -1.24%
19,O=[As](O)(c1ccc(O)cc1)c1ccccc1O,inactive: 8.49%
20,C[As](=O)(O)c1cccc(C(=O)O)c1,inactive: -1.77%
21,COc1cc(C(=O)NCC2(N3CCOCC3)CCCCC2)ccc1OCC(C)C,inactive: 8.1%
22,O=[N+]([O-])c1ccc(-c2cc([N+](=O)[O-])c(O)c([N+](=O)[O-])c2)cc1,active: -61.7%
23,Cc1cc(SC(NC=O)C(Cl)(Cl)Cl)ncn1 (stereo not given),active: -95.3%
24,O=P(Nc1ccccn1)(c1cccc2ccccc12)c1cccc2ccccc12,inactive: 0.0242%
25,O=[N+]([O-])c1ccc(Nc2ccc(Oc3ccc([N+](=O)[O-])cc3[N+](=O)[O-])cc2)c([N+](=O)[O-])c1,inactive: -3.31%

row,SMILES,max response
1,CCOC(=O)Nc1cccc([As](=O)(O)O)c1,inactive: 3.71%
2,COP(=O)(OC)N1CC1c1ccccc1 (stereo not given),inactive: -8.72%
3,CCCCOc1ccc(C(=O)NCC2(N3CCCCC3)CCCCC2)cc1OC,inactive: -1.49%
4,O=C(O)C(O)c1ccc(N(CCCl)CCCl)cc1 (stereo not given),inactive: -11.8%
5,CCOC(=O)Nc1ccc([As](=O)(O)O)c(O)c1,inactive: 3.79%
6,CC1CCNP(=O)(N(CCCl)CCCl)O1 (stereo not given),inactive: 1.01%
7,CCC(C)N(CC(C)C)C(=S)SC(NC(C)=O)C(Cl)(Cl)Cl (stereo not given),inactive: -4.01%
8,O=C(OC1CN2CCC1CC2)c1cccc([N+](=O)[O-])c1 (stereo not given),inactive: 1.32%
9,CCOC(=O)c1ccc(NC(=O)C(C)(CCl)SC)cc1 (stereo not given),inactive: -1.27%
10,O=C(O)C(=O)c1ccc(N(CCCl)CCCl)cc1,inactive: -12%
11,O=C(COc1ccccc1)OC1CN2CCC1CC2 (stereo not given),inactive: 1.41%
12,O=C(Nc1ccncc1[N+](=O)[O-])c1ccc([N+](=O)[O-])cc1[N+](=O)[O-],inactive: 0.994%
13,COC(=O)C1(C)COP(=O)(N2CCCC2)OC1 (stereo not given),inactive: -2.37%
14,CN(C(=O)Cc1ccc(Cl)c(Cl)c1)[C@@H]1CCCC[C@H]1N1CCCC1,inactive: -0.578%
15,CC(C)/C=N\N=C(\N)N[N+](=O)[O-],inactive: 3.28%
16,CC1(CBr)Cn2c(nc3ccccc3c2=O)S1 (stereo not given),inactive: 4.56%
17,COc1ccccc1CNC(=O)COC(=O)C(O)(c1ccccc1)c1ccccc1,inactive: -3.33%
18,Clc1n[nH]nc1-c1nn[nH][15n]1,inactive: 0%
19,O=P1(N(CCCl)CCCl)NCCC(C(F)(F)F)O1 (stereo not given),inactive: 7.84%
20,CC(C)(C)C(=O)NC(Sc1ncccn1)C(Cl)(Cl)Cl (stereo not given),inactive: 5.43%
21,CCC1=CC2Cc3nc4ccc(Cl)cc4c(N)c3C(C1)C2 (stereo not given),inactive: 0.676%
22,O=P1(Nc2ccccn2)COc2ccccc2OC1,inactive: 5.42%
23,CCOP(=O)(NC(=NC(C)c1ccccc1)NC(C)c1ccccc1)OCC (stereo not given),inactive: -2.69%
24,CCOP(=O)(Nc1ccc(C)cn1)OCC,inactive: 2.04%
25,Nc1cccc([As](=O)(O)c2ccccc2)c1,inactive: 0.334%

row,SMILES,max response
1,NS(=O)(=O)c1cccc(NC(=O)COC(=O)C(O)(c2ccccc2)c2ccccc2)c1,inactive: 3.85%
2,O=P1(Nc2ccc(Br)cn2)COc2ccccc2OC1,inactive: -2.66%
3,Cc1ccc(OCC(=O)OC2CN3CCC2CC3)cc1 (stereo not given),inactive: 3.89%
4,O=[As](O)(c1cccs1)c1cccs1,inactive: 3.11%
5,Cc1ccc(S(=O)(=O)N(CCCN)CCCc2c(C)nc(N)[nH]c2=O)cc1,inactive: -26.7%
6,O=P1(Nc2ncccn2)COc2ccccc2OC1,inactive: -15.7%
7,CN(C)C1(CNC(=O)c2ccc(S(C)(=O)=O)cc2)CCCCC1,inactive: -3.93%
8,O=C(/C=C/c1ccccc1)OC1CN2CCC1CC2 (stereo not given),inactive: 2.88%
9,CCCC1OP(=O)(Nc2ccccc2)OCC1CC (stereo not given),inactive: 2.52%
10,Cc1ccc(C(=O)OC2CN3CCC2CC3)cc1 (stereo not given),inactive: 3.23%
11,CC1CCC(C(C)C)C(OP(=O)(Nc2ccccn2)c2ccccc2)C1 (stereo not given),inactive: 5.64%
12,N#CCCN(C(=O)COC(=O)C(O)(c1ccccc1)c1ccccc1)c1ccc(F)cc1,inactive: -0.579%
13,CN(C(=O)Cc1ccccc1)[C@@H]1CC[C@]2(CCCO2)C[C@H]1N1CCCC1,inactive: -0.226%
14,CN(C)C(=O)c1cc([N+](=O)[O-])cc2c1-c1c(cc([N+](=O)[O-])cc1[N+](=O)[O-])C2=O,inactive: 3.34%
15,CN(C(=O)Cc1ccc(Cl)c(Cl)c1)[C@H]1CC[C@@]2(CCCO2)C[C@@H]1N1CCCC1,inactive: 1.8%
16,NC(=O)Nc1ccc([As](=O)(O)O)cc1,inactive: -3.58%
17,O=C(O)COc1ccc([As](=O)(O)O)cc1[N+](=O)[O-],inactive: 2.27%
18,Nc1ccccc1[As](=O)(O)c1ccccc1,inactive: -2.7%
19,O=P(Nc1nccs1)(c1ccccc1)c1nc2ccccc2s1 (stereo not given),active: -82.4%
20,O=P(Nc1nccs1)(Oc1ccccc1)Oc1ccccc1,inactive: -1.37%
21,CS(=O)(=O)c1cc([N+](=O)[O-])c2no[n+]([O-])c2c1,active: -84.5%
22,COc1cc(C2NCCC3(OCCO3)C2(C)C)cc(OC)c1OC (stereo not given),inactive: -0.0454%
23,CCOP(=O)(Nc1cccc2ccccc12)OCC,inactive: -0.278%
24,Cc1ccc(NCCc2c([N+](=O)[O-])cc([N+](=O)[O-])cc2[N+](=O)[O-])cc1,inactive: -27.3%
25,Nc1cccc2c([As](=O)(O)O)cccc12,inactive: 1.12%

row,SMILES,max response
1,CCCOP(=S)(Nc1nc(N)cc(=O)[nH]1)OCCC,inactive: 6.36%
2,O=[As](O)(c1cccc(O)c1)c1cccc(O)c1,inactive: -1.19%
3,Cc1cccc(OCC(=O)OC2CN3CCC2CC3)c1 (stereo not given),inactive: -10.6%
4,O=C(OC1CN2CCC1CC2)c1ccc(Cl)cc1 (stereo not given),inactive: -0.642%
5,COc1cc(C(=O)NCC2(N3CCOCC3)CCCCC2)cc(Cl)c1OC(C)C,inactive: 1.89%
6,O=[As](O)(O)c1cccnc1,inactive: -0.83%
7,CS(=O)(=O)c1ccc(Cl)c(NC(=O)COC(=O)C(O)(c2ccccc2)c2ccccc2)c1,inactive: 5.77%
8,CC(=O)Nc1ccc([As](=O)(O)O)c(O)c1,inactive: 0.226%
9,Cc1ccccc1CN(C)C(=O)COC(=O)C(O)(c1ccccc1)c1ccccc1,inactive: 6.37%
10,C[C@@H]1C=CCP(=O)(Oc2ccccc2)O1 (stereo not given in full),inactive: -2.65%
11,C[C@H]1OP(=O)(Oc2ccccc2)C[C@@H]2O[C@@H]21 (stereo not given in full),inactive: -1.45%
12,N#C/C(=C\c1ccc(N(CCBr)CCBr)cc1)C(N)=O,inactive: -15%
13,CC(=O)c1ccc(N2CC2c2ccncc2)cc1 (stereo not given),inactive: -2.76%
14,COC(=O)C1(C)COP(=O)(NCc2ccccc2)OC1 (stereo not given),inactive: 10.5%
15,CC(C)(C)C(=O)NC(Sc1ccccc1)C(Cl)(Cl)Cl (stereo not given),inactive: 16.5%
16,CCc1cc(O)c([N+](=O)[O-])c(C)c1[N+](=O)[O-],inactive: -21.3%
17,O=P1(Nc2nc3ccc(Cl)cc3s2)COc2ccccc2O1 (stereo not given),inactive: -2.89%
18,CCOc1ccc(C2=NCC(CBr)S2)cc1 (stereo not given),inactive: -4.8%
19,Cc1ccccc1OP(=O)(Nc1ccccn1)Oc1ccccc1C,inactive: 8.1%
20,CC(NC(=O)COC(=O)C(O)(c1ccccc1)c1ccccc1)c1ccccc1 (stereo not given),inactive: -2.87%
21,CN(C)C(=O)Oc1noc2ccccc12,inactive: 0.0606%
22,O=c1c2cc([N+](=O)[O-])ccc2[nH]c2c([N+](=O)[O-])cc([N+](=O)[O-])cc12,inactive: -10.3%
23,O=C(OC1CN2CCC1CC2)c1ccccc1 (stereo not given),inactive: -6.2%
24,CCC(=O)N1C2C3N(C(=O)CC)C1C1N(C(=O)CC)C(C(N1C(=O)CC)N3C(=O)CC)N2C(=O)CC,inactive: -3.34%
25,COC(=O)c1cc2c(s1)N=C(c1ccccc1)N(C)P2(=O)N1CCOCC1 (stereo not given),inactive: -0.791%
